Experimental findings from ChEMBL document CHEMBL4507292 (2021) are described below.

Assay [1] has as its target T1, Protein kinase C iota type (Homo sapiens) (UniProt P41743).
T1 sequence (whole entry): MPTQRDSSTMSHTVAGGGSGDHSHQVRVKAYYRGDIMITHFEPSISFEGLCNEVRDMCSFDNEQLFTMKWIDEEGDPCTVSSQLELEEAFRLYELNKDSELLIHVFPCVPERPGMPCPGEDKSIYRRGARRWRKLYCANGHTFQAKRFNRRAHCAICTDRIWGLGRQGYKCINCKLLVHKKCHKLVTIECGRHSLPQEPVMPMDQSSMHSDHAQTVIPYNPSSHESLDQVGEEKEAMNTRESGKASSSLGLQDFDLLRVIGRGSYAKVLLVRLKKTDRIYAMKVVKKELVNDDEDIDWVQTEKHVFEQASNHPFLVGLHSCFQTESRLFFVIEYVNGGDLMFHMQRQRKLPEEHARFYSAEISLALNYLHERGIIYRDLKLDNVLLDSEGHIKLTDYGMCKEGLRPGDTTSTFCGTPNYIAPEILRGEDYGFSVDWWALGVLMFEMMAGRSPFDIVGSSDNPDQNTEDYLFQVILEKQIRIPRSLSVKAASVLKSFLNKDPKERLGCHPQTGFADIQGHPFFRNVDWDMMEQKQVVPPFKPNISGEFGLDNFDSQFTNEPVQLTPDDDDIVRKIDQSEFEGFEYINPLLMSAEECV
The following applies: Compound concentration 1000.0 nM.

Assay [2] has as its target T2, SNF-related serine/threonine-protein kinase (Homo sapiens) (UniProt Q9NRH2).
T2 sequence (whole entry): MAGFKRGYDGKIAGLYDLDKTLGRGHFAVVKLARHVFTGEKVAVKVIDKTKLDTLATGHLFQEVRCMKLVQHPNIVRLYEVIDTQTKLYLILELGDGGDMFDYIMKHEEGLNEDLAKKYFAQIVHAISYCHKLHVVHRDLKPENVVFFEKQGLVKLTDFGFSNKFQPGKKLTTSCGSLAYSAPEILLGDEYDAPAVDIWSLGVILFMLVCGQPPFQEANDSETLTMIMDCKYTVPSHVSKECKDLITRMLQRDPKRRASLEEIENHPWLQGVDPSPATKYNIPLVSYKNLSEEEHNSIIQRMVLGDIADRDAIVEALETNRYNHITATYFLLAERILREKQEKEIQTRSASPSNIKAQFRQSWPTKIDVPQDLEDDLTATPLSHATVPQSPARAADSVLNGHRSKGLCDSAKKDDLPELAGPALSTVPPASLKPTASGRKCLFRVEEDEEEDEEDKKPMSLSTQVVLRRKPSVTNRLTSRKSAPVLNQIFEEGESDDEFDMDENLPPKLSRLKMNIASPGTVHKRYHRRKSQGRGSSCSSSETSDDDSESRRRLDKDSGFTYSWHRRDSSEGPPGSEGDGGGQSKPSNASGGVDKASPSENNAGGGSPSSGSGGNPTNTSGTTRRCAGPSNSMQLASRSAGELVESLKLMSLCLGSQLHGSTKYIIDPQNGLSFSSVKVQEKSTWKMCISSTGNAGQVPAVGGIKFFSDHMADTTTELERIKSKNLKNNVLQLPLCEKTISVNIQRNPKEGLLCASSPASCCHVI
The note with it: Compound concentration 1000.0 nM.

`Cc1c(C(=O)O)cc(-c2ccc(C3CCNCC3)cc2)c2ccc(-c3ccc(C(F)(F)F)cc3)cc12` [PPTN-NC]: the residual activity (commonly the signal under treatment as a percentage of the control signal) in assay [1] was 68%; in assay [2], 69%.
